# Results: ChEMBL document CHEMBL4325855 (Eur J Med Chem, 2019)
# Chains of the proteins cited; added tags and fusions are not shown. Lines headed by an entry give the natural chain unless they say otherwise; changes in a name come on top.
# UniProt P45983: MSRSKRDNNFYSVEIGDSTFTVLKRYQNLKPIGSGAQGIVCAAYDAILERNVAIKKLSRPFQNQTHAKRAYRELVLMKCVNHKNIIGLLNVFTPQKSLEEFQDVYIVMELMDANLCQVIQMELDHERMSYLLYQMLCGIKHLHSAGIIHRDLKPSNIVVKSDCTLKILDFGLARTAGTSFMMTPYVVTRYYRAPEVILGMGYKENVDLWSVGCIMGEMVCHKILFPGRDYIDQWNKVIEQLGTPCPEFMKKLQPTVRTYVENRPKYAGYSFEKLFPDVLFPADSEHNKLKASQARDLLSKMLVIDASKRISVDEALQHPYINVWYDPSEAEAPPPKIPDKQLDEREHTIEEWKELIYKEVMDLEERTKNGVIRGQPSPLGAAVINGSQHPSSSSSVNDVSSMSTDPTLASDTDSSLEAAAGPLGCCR
# UniProt P53779: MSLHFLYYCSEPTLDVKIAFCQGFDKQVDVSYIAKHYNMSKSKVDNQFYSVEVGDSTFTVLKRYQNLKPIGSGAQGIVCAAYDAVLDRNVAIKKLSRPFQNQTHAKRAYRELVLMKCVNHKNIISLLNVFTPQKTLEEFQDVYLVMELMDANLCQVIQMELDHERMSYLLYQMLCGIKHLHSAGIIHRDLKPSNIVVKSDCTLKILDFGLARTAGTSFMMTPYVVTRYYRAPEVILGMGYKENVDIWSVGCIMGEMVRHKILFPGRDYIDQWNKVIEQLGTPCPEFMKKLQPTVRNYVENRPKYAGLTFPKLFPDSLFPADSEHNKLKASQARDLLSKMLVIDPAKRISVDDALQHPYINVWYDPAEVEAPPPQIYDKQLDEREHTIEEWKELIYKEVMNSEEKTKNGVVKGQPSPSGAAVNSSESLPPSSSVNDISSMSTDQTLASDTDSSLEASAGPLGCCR
# Legend:
# Type in all cases: cell-based
# [1] = biological target: Mitogen-activated protein kinase 8 (Homo sapiens, UniProt P45983); experiment: Binding affinity to human full-length JNK1 (M1 to Q384 residues) expressed in HEK293 cells measured after 1 hr by Kinomescan method
# Outline: (§1)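 Competition binding on a phage-display/cell-expressed kinase platform; each compound incubated with kinase 1 h at room temperature. Unbound kinase was captured on an immobilized affinity ligand and quantified by qPCR. N.A. means no inhibition below 40 µM.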
# [2] = biological target: Mitogen-activated protein kinase 9 (Homo sapiens, UniProt P45984); experiment: Binding affinity to human full-length JNK2 (M1 to Q382 residues) expressed in HEK293 cells measured after 1 hr by Kinomescan method; outline: as §1
# [3] = biological target: Mitogen-activated protein kinase 10 (Homo sapiens, UniProt P53779); experiment: Binding affinity to human partial length JNK3 (V28 to Q422 residues) expressed in HEK293 cells measured after 1 hr by Kinomescan method; outline: as §1
# [4] = biological target: T1, c-Jun N-terminal kinase, JNK (Homo sapiens, UniProt P45983+P53779+P45984); experiment: Inhibition of JNK in human THP1-Blue cells assessed as reduction in LPS-induced NFkappaB/AP1 activation preincubated for 30 mins followed by LPS-stimulation and measured after 24 hrs by quanti-blue staining based alkaline phosphatase reporter gene assay
# [5] = biological target: T1, c-Jun N-terminal kinase, JNK; experiment: Inhibition of JNK in human MONO-MAC-6 cells assessed as reduction in LPS-induced IL6 production preincubated for 30 mins followed by LPS-stimulation and measured after 24 hrs by ELISA
# Outline: (§2)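 MonoMac-6 cells, 2 × 10^5/well in medium with 3% endotoxin-free FBS, were pretreated 30 min with compound or DMSO, then stimulated with 250 ng/ml LPS for 24 h. IL-6 in the supernatant was measured by human IL-6 ELISA. IC50 came from percent inhibition vs log concentration (at least five points); triplicate samples, representative of three experiments.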
# [6] = biological target: T1, c-Jun N-terminal kinase, JNK; experiment: Inhibition of JNK in human THP1-Blue cells assessed as reduction in LPS-induced NFkappaB/AP1 activation at <40 uM preincubated for 30 mins followed by LPS-stimulation and measured after 24 hrs by quanti-blue staining based alkaline phosphatase reporter gene assay
# Outline: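 THP-1Blue monocytes carry a secreted alkaline phosphatase reporter under an NF-κB/AP-1-inducible promoter and were grown in RPMI 1640 with 10% FBS plus Zeocin and blasticidin selection. Cells, 2 × 10^5/well, were pretreated 30 min with compound or DMSO, then given 250 ng/ml LPS for 24 h. Supernatant phosphatase was read with QUANTI-Blue at 655 nm against LPS controls; IC50 calculated.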
# [7] = biological target: T1, c-Jun N-terminal kinase, JNK; experiment: Inhibition of JNK in human MONO-MAC-6 cells assessed as reduction in LPS-induced IL6 production at <40 uM preincubated for 30 mins followed by LPS-stimulation and measured after 24 hrs by ELISA; outline: as §2
SMILES,Kd [1] [nM],Kd [2] [nM],Kd [3] [nM],IC50 [4] [nM],IC50 [5] [nM],inhibition [6],inhibition [7]
O/N=C1\c2ccccc2-c2nc3ccccc3nc21,240,360,100,2300,3800,–,–
O=C1c2ccccc2-n2c1nc1ccccc1c2=O [TRYPTANTHRIN],–,–,–,–,–,inactive,inactive
O=C1c2ccccc2-c2n[nH]c3cccc1c23,–,–,22,–,–,–,–

# The source made the active and inactive calls. The calls are words filed in the database; no cut-off is given here.
